Experiment [1] concerns the target Sodium-dependent dopamine transporter (Homo sapiens) (UniProt Q01959). As to the kind of experiment: Inhibition of DAT (unknown origin) expressed in HEK293 cells assessed as inhibition of MPP+ transport incubated for 5 mins by tandem mass spectrometry. It is filed as cell-based.
The target in experiment [2] is Sodium-dependent serotonin transporter (Homo sapiens) (UniProt P31645). As to the kind of experiment: Inhibition of SERT (unknown origin) expressed in HEK293 cells assessed as inhibition of MPP+ transport incubated for 5 mins by tandem mass spectrometry. It is filed as cell-based.

Chains of the proteins cited; added tags and fusions are not shown.
UniProt Q01959, whole entry: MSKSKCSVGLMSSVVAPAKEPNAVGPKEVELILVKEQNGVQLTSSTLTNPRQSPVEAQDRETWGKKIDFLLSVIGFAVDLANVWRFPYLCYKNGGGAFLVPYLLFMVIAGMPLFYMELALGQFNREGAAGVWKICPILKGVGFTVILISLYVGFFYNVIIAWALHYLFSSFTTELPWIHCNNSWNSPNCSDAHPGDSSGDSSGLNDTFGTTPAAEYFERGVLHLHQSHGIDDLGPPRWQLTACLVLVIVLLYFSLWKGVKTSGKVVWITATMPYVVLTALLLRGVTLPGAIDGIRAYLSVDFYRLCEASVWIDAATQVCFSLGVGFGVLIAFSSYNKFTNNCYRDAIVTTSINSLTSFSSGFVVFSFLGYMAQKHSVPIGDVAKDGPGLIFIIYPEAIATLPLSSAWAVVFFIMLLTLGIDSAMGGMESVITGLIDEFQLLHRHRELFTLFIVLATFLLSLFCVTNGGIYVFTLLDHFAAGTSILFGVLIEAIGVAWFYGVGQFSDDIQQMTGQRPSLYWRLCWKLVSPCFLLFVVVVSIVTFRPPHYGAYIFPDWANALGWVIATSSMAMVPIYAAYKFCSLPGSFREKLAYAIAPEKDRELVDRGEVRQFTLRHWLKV
UniProt P31645, whole entry, looked up: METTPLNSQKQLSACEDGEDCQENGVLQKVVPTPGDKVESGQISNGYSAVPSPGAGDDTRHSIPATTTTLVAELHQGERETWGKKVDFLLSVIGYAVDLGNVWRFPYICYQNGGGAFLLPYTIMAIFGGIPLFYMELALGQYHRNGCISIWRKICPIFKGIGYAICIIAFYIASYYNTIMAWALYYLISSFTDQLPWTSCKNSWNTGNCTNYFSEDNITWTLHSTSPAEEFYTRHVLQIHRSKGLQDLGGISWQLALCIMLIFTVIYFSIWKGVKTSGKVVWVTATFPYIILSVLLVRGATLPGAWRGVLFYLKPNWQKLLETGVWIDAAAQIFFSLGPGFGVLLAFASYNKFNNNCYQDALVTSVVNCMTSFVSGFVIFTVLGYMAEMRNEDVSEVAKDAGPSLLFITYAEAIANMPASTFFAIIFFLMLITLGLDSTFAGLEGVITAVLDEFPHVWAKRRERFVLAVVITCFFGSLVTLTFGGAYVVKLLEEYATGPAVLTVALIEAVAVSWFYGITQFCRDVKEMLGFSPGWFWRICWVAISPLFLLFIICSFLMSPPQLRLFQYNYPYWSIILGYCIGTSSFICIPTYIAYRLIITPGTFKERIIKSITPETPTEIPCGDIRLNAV

Active and inactive are the calls of the source. No cut-off for these calls is given here.

For `CC(C(=O)Nc1ccccc1)n1nc(C(=O)Nc2ccc(Cl)cc2)c2ccccc21` (configuration not stated), the inhibition result in experiment [1] and in experiment [2] was “inactive” each time.

`COc1ccc(NC(=O)C(C)n2nc(C(=O)Nc3ccccc3)c3ccccc32)cc1` (configuration not stated): the inhibition entry in experiment [1] and in experiment [2] was “inactive” throughout.

On to `CC(C(=O)Nc1ccc(F)cc1)n1nc(C(=O)Nc2ccccc2)c2ccccc21` (configuration not stated), for which the inhibition result in experiment [1] and in experiment [2] was “inactive” throughout.

For the molecule `CS(=O)(=O)c1ccc(-c2nn(CC(=O)Nc3ccc(Cl)c(Cl)c3)c3ccccc23)cc1`, the inhibition entry in experiment [1] and in experiment [2] was “inactive” each time.

Take `Cc1ccccc1NC(=O)C(C)n1nc(C(=O)Nc2ccccc2)c2ccccc21` (configuration not stated): the inhibition result in experiment [1] and in experiment [2] was “inactive” each time.

With `CC(C(=O)Nc1ccccc1)n1nc(C(=O)Nc2ccccc2)c2ccccc21` (configuration not stated), the inhibition result in experiment [1] and in experiment [2] was “inactive” throughout.

The values are drawn from ChEMBL document CHEMBL6109064, “Functional and structural polypharmacology of indazole-based privileged ligands to tackle the undruggability of membrane transporters” (Eur J Med Chem, 2025).
